# Earlier results as cited in patent publication US6444862B1, “Synthesis and isolation of metal alkoxides” (Mine Safety Appliances Company, priority 2000, dated 2002).
# Conditions: the parent alcohol; cited from earlier work
substance,measurement,value
sodium isopropoxide,solubility in isopropanol,about 2 wt %
